For experiment [1], the target named is T1, DNA topoisomerase 1 (Homo sapiens) (UniProt P11387).
T1 sequence (whole entry): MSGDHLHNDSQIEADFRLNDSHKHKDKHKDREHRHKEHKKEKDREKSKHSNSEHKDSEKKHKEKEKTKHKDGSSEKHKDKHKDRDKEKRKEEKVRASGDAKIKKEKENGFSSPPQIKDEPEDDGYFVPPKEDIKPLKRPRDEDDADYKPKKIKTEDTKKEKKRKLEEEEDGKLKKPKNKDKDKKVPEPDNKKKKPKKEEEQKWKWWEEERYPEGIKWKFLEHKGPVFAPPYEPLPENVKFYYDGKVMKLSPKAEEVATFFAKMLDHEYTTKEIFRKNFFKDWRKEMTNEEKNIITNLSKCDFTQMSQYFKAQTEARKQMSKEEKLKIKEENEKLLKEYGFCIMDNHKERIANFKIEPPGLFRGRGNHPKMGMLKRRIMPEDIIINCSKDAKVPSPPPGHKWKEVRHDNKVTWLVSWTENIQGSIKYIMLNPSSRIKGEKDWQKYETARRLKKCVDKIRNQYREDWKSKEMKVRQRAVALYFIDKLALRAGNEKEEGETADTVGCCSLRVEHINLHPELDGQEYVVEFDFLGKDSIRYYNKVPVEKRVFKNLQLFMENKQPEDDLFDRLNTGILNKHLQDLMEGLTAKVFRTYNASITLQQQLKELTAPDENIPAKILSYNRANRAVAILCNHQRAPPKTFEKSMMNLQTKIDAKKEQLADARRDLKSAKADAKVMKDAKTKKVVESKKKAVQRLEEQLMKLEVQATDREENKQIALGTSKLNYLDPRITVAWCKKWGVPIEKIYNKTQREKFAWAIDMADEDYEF
The experiment is described as follows: Inhibition of TOP1-mediated DNA cleavage in human MCF7 cells assessed as induction of protein-DNA covalent cleavage complex formation by measuring increase in gammaH2AX foci formation preincubated for 3 to 5 hrs followed by compound washout and measured after 5 hrs by DAPI staining-based immunofluorescence microscopic method. The format is cell-based.

Experiment [2] addresses T1, DNA topoisomerase 1 (Homo sapiens). Briefly: Poison activity at recombinant human TOP1 expressed in baculovirus infected Sf9 insect cells assessed as stabilization of enzyme-25mer duplex oligonucleotide cleavable complex formation at 5 to 25 uM measured after 30 mins by ethidium bromide staining based agarose gel electrophoresis method.
Experiment [3] shares this target. Briefly: Inhibition of TOP1-mediated DNA cleavage in human MCF7 cells assessed as induction of protein-DNA covalent cleavage complex formation by measuring increase in gammaH2AX foci formation by DAPI staining-based immunofluorescence microscopic method. The format is cell-based.
Experiment [4] shares this target. The experiment is described as follows: Poison activity at TOP1 in human MCF7 cells assessed as decrease in relaxed supercoiled pBS(SK+) DNA mobility at 0.25 to 2 uM measured after 30 mins by ethidium bromide staining based agarose gel electrophoresis. The format is cell-based.
The target is the same in experiment [5]. Briefly: Poison activity at recombinant human TOP1 expressed in baculovirus infected Sf9 insect cells assessed as decrease in relaxed supercoiled pBS(SK+) DNA mobility at 0.1 uM measured after 30 mins by ethidium bromide staining based agarose gel electrophoresis relative to control. Also on record: scale not given: the % may be the effect or the level left.

Activity calls are given as the source filed them. The rule behind the calls is not given here.

Turning to `COc1ccc(-c2ccc3ncc(-c4nnco4)c(NCCCn4ccnc4)c3c2)cc1`, the fold change (FC) in experiment [1] is 3 to 4. Further, the outcome in experiment [2] and in experiment [4] was Active. Further, the inhibition result in experiment [3] is “Dose-dependent effect”. Besides, the Activity in experiment [5] lay within 85 to 90%.

The record behind these values is ChEMBL document CHEMBL4340526, “Discovery and Mechanistic Study of Tailor-Made Quinoline Derivatives as Topoisomerase 1 Poison with Potent Anticancer Activity” (J Med Chem, 2019).
